Test results taken from ChEMBL document CHEMBL4261658, “4-Hydroxy-3-nitro-5-ureido-benzenesulfonamides Selectively Target the Tumor-Associated Carbonic Anhydrase Isoforms IX and XII Showing Hypoxia-Enhanced Antiproliferative Profiles” (J Med Chem, 2018).

What was measured:
Format in all cases: functional, cell-based
HT-29 [1] = experiment: Cytotoxicity against human HT-29 cells assessed as reduction in cell viability after 48 hrs under normoxic conditions by MTT assay
Outline: (§1)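 Cells cultured in high-glucose DMEM with 20% FBS at 37 °C and 5% CO2, seeded at 1x10^4/well, then dosed 24 h later (0–200 μM) for 48 h. Hypoxia: 1% O2, 5% CO2, balance N2 in a hypoxic workstation; normoxia: 20% O2 in air, 5% CO2. MTT (1 mg/ml) for 30 min at 37 °C, formazan dissolved in DMSO, A550. Untreated control set to 100%; quadruplicates, ≥3 cell batches, mean ± S.E.M.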

MDA-MB-231 [2] = experiment: Cytotoxicity against human MDA-MB-231 cells assessed as reduction in cell viability after 48 hrs under hypoxic conditions by MTT assay; outline: as §1
PC-3 [3] = experiment: Cytotoxicity against human PC3 cells assessed as reduction in cell viability after 48 hrs under hypoxic conditions by MTT assay; outline: as §1
HT-29 [4] = experiment: Cytotoxicity against human HT-29 cells assessed as reduction in cell viability after 48 hrs under hypoxic conditions by MTT assay; outline: as §1
MDA-MB-231 [5] = experiment: Cytotoxicity against human MDA-MB-231 cells assessed as reduction in cell viability after 48 hrs under normoxic conditions by MTT assay; outline: as §1
PC-3 [6] = experiment: Cytotoxicity against human PC3 cells assessed as reduction in cell viability after 48 hrs under normoxic conditions by MTT assay; outline: as §1

Measured: Activity

NS(=O)(=O)c1cc([N+](=O)[O-])c(O)c([N+](=O)[O-])c1
active: HT-29 [1] Dose-dependent effect | MDA-MB-231 [2] Dose-dependent effect | PC-3 [3] Dose-dependent effect | HT-29 [4] Dose-dependent effect | MDA-MB-231 [5] Dose-dependent effect | PC-3 [6] Dose-dependent effect
